Earlier results, collected in patent publication US8546322B2, “Inhibitors of intracellular urokinase plasminogen activator and methods of use thereof” (The Regents of the University of California, priority 2007, dated 2013).

Test system: tumor cells
Conditions: cited from earlier work

**Q.** Which “concentrations required for producing cytotoxic effects” value does the source give for `N=C(N)NC(=O)c1nc(Cl)c(N)nc1N` [Amiloride, 3,5-diamino-6-chloro-N-(diaminomethylene)pyrazinecarboxamide] here?
**A.** The value was at least 500 µM.
